From patent US10226464B2, “Small molecule NF-κB inhibitors” (ImmuneTarget, Inc., priority 2015, dated 2019)

Chains of the proteins cited; added tags and fusions are not shown.
UniProt Q04864, whole entry: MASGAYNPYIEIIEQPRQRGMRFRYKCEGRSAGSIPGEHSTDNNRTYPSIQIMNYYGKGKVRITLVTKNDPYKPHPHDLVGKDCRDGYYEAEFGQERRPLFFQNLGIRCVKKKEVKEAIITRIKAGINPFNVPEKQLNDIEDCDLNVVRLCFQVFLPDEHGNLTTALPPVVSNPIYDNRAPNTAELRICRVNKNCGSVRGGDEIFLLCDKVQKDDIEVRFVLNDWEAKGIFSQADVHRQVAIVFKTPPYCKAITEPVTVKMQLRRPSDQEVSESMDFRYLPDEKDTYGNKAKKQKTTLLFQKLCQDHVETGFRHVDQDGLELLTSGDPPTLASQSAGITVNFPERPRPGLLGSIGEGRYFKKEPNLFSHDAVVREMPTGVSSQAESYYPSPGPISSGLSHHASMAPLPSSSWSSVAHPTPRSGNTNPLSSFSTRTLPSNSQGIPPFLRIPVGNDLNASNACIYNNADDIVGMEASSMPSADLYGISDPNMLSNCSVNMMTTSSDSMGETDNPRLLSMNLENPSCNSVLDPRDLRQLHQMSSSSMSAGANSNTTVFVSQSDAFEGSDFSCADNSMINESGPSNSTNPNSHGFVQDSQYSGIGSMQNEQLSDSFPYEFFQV

What was measured:
c-Rel protein = c-Rel protein (Homo sapiens (Human), UniProt Q04864); assay: Electrophoretic Mobility Shift Assay (EMSA), Rel/NF-κB DNA binding inhibition; details: read-out: EMSA IC50; 10 nM c-Rel protein, phosphor-labeled CD28RE oligonucleotide
NF-κB = NF-κB GFP Assay (NFκB/Jurkat/GFP transcriptional reporter cell line); details: read-out: NF-KB GFP IC50; NF-κB/Jurkat/GFP reporter cells, TNF-α 5 ng/ml, 24 hours

## O=C(O)CCCCOc1ccc2cc3c(=O)[nH]c(=O)nc-3oc2c1Cl
c-Rel protein
  IC50: < 5 µM
NF-κB
  IC50: < 20 µM
